Test results as given in PubChem BioAssay (NCI).
Some structures show a salt or complex split into parts, the way the source records it.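 Dose response: 5 concentrations. Exposure: 48 h. Format: 96-well plates. Endpoint: linear interpolation; highest concentration if not reached. GI50 marks 50% less growth. The concentration for full growth arrest is given as TGI.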

Key:
Assay in all cases: NCI-60 cell line screen, 48 h
[1] = test system: 786-0 renal
[2] = test system: A549 NSCLC
[3] = test system: ACHN renal
[4] = test system: CAKI-1 renal
[5] = test system: CCRF-CEM leukemia
[6] = test system: COLO 205 colon
[7] = test system: DLD-1 colon
[8] = test system: DMS 273 small cell lung
[9] = test system: EKVX NSCLC
[10] = test system: HCC-2998 colon
[11] = test system: HCT-116 colon
[12] = test system: HCT-15 colon
[13] = test system: HL-60(TB) leukemia
[14] = test system: HOP-62 NSCLC
[15] = test system: HOP-92 NSCLC
[16] = test system: HT29 colon
[17] = test system: IGROV1 ovarian
[18] = test system: K-562 leukemia
[19] = test system: KM20L2 colon
[20] = test system: LOX IMVI melanoma
[21] = test system: LXFL 529 NSCLC
[22] = test system: M14 melanoma
[23] = test system: M19-MEL melanoma
[24] = test system: MALME-3M melanoma
[25] = test system: MOLT-4 leukemia
[26] = test system: NCI-H226 lung
[27] = test system: NCI-H23 lung
[28] = test system: NCI-H322M lung
[29] = test system: NCI-H460 lung
[30] = test system: NCI-H522 lung
[31] = test system: OVCAR-3 ovarian
[32] = test system: OVCAR-4 ovarian
[33] = test system: OVCAR-5 ovarian
[34] = test system: OVCAR-8 ovarian
[35] = test system: RPMI-8226 leukemia
[36] = test system: RXF 393 renal
[37] = test system: SF-268 CNS
[38] = test system: SF-295 CNS
[39] = test system: SF-539 CNS
[40] = test system: SK-MEL-2 melanoma
[41] = test system: SK-MEL-28 melanoma
[42] = test system: SK-MEL-5 melanoma
[43] = test system: SK-OV-3 ovarian
[44] = test system: SN12C renal
[45] = test system: SNB-19 CNS
[46] = test system: SNB-75 CNS
[47] = test system: SW-620 colon
[48] = test system: TK-10 renal
[49] = test system: U251 CNS
[50] = test system: UACC-257 melanoma
[51] = test system: UACC-62 melanoma
[52] = test system: UO-31 renal

Q: Which GI50 [1] does the source give for `CC(=O)[CH-]C(=O)c1ccccc1.CC(=O)[CH-]C(=O)c1ccccc1.O=C([O-])C([O-])(c1ccccc1)c1ccccc1.O=C([O-])C([O-])(c1ccccc1)c1ccccc1.[Ti+4]` here?
A: 45.1 µM

Q: And the TGI [1]?
A: > 100 µM

Q: What about the GI50 [2] of the same compound?
A: 65.5 µM

Q: What about the TGI [2] of the same compound?
A: > 100 µM

Q: What about the GI50 [3] of the same compound?
A: > 100 µM

Q: And the TGI [3]?
A: > 100 µM

Q: What about the GI50 [4] of the same compound?
A: 70.2 µM

Q: And the TGI [4]?
A: > 100 µM

Q: And the GI50 [5]?
A: 18.8 µM

Q: What about the TGI [5] of the same compound?
A: > 100 µM

Q: What about the GI50 [6] of the same compound?
A: 34.4 µM

Q: And the TGI [6]?
A: > 100 µM

Q: What about the GI50 [7] of the same compound?
A: 56.2 µM

Q: What about the TGI [7] of the same compound?
A: > 100 µM

Q: And the GI50 [8]?
A: 63.3 µM

Q: And the TGI [8]?
A: > 100 µM

Q: And the GI50 [9]?
A: 47.4 µM

Q: What about the TGI [9] of the same compound?
A: > 100 µM

Q: What about the GI50 [10] of the same compound?
A: 63.3 µM

Q: And the TGI [10]?
A: > 100 µM

Q: What about the GI50 [11] of the same compound?
A: 34.2 µM

Q: What about the TGI [11] of the same compound?
A: > 100 µM

Q: And the GI50 [12]?
A: 59.8 µM

Q: And the TGI [12]?
A: > 100 µM

Q: What about the GI50 [13] of the same compound?
A: 17.2 µM

Q: What about the TGI [13] of the same compound?
A: 50.6 µM

Q: And the GI50 [14]?
A: 46.1 µM

Q: And the TGI [14]?
A: > 100 µM

Q: And the GI50 [15]?
A: 21.6 µM

Q: What about the TGI [15] of the same compound?
A: 57.8 µM

Q: What about the GI50 [16] of the same compound?
A: 39.1 µM

Q: What about the TGI [16] of the same compound?
A: > 100 µM

Q: And the GI50 [17]?
A: 57.3 µM

Q: What about the TGI [17] of the same compound?
A: > 100 µM

Q: And the GI50 [18]?
A: 28.7 µM

Q: What about the TGI [18] of the same compound?
A: > 100 µM

Q: And the GI50 [19]?
A: 41.6 µM

Q: What about the TGI [19] of the same compound?
A: > 100 µM

Q: What about the GI50 [20] of the same compound?
A: 33.4 µM

Q: And the TGI [20]?
A: > 100 µM

Q: What about the GI50 [21] of the same compound?
A: 23.9 µM

Q: And the TGI [21]?
A: > 100 µM

Q: And the GI50 [22]?
A: 27.7 µM

Q: What about the TGI [22] of the same compound?
A: > 100 µM

Q: What about the GI50 [23] of the same compound?
A: 34.7 µM

Q: And the TGI [23]?
A: > 100 µM

Q: What about the GI50 [24] of the same compound?
A: 32.4 µM

Q: What about the TGI [24] of the same compound?
A: > 100 µM

Q: And the GI50 [25]?
A: 20.8 µM

Q: What about the TGI [25] of the same compound?
A: > 100 µM

Q: What about the GI50 [26] of the same compound?
A: 20.2 µM

Q: What about the TGI [26] of the same compound?
A: 77.3 µM

Q: What about the GI50 [27] of the same compound?
A: 24.4 µM

Q: What about the TGI [27] of the same compound?
A: > 100 µM

Q: What about the GI50 [28] of the same compound?
A: 36.3 µM

Q: And the TGI [28]?
A: > 100 µM

Q: And the GI50 [29]?
A: 51.1 µM

Q: And the TGI [29]?
A: > 100 µM

Q: What about the GI50 [30] of the same compound?
A: 21.3 µM

Q: And the TGI [30]?
A: 82.6 µM

Q: And the GI50 [31]?
A: 53.2 µM

Q: What about the TGI [31] of the same compound?
A: > 100 µM

Q: What about the GI50 [32] of the same compound?
A: 26.8 µM

Q: And the TGI [32]?
A: > 100 µM

Q: And the GI50 [33]?
A: 37.2 µM

Q: What about the TGI [33] of the same compound?
A: > 100 µM

Q: What about the GI50 [34] of the same compound?
A: 41.5 µM

Q: And the TGI [34]?
A: > 100 µM

Q: What about the GI50 [35] of the same compound?
A: 30.2 µM

Q: And the TGI [35]?
A: > 100 µM

Q: What about the GI50 [36] of the same compound?
A: 36.2 µM

Q: What about the TGI [36] of the same compound?
A: > 100 µM

Q: What about the GI50 [37] of the same compound?
A: 38 µM

Q: What about the TGI [37] of the same compound?
A: > 100 µM

Q: And the GI50 [38]?
A: 36.2 µM

Q: And the TGI [38]?
A: > 100 µM

Q: What about the GI50 [39] of the same compound?
A: 37.2 µM

Q: What about the TGI [39] of the same compound?
A: > 100 µM

Q: What about the GI50 [40] of the same compound?
A: 30 µM

Q: And the TGI [40]?
A: > 100 µM

Q: And the GI50 [41]?
A: 35.3 µM

Q: What about the TGI [41] of the same compound?
A: > 100 µM

Q: And the GI50 [42]?
A: 33.2 µM

Q: And the TGI [42]?
A: > 100 µM

Q: And the GI50 [43]?
A: 32.2 µM

Q: And the TGI [43]?
A: > 100 µM

Q: What about the GI50 [44] of the same compound?
A: 54.9 µM

Q: And the TGI [44]?
A: > 100 µM

Q: And the GI50 [45]?
A: 54.5 µM

Q: What about the TGI [45] of the same compound?
A: > 100 µM

Q: What about the GI50 [46] of the same compound?
A: 4.39 µM

Q: And the TGI [46]?
A: > 100 µM

Q: What about the GI50 [47] of the same compound?
A: 34.4 µM

Q: What about the TGI [47] of the same compound?
A: > 100 µM

Q: And the GI50 [48]?
A: > 100 µM

Q: What about the TGI [48] of the same compound?
A: > 100 µM

Q: And the GI50 [49]?
A: 42.6 µM

Q: What about the TGI [49] of the same compound?
A: > 100 µM

Q: What about the GI50 [50] of the same compound?
A: 71.5 µM

Q: And the TGI [50]?
A: > 100 µM

Q: What about the GI50 [51] of the same compound?
A: 43.1 µM

Q: And the TGI [51]?
A: > 100 µM

Q: And the GI50 [52]?
A: 29.2 µM

Q: What about the TGI [52] of the same compound?
A: > 100 µM
